# Membrane permeability of cyclic peptides

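Lipid, pH, incubation time, direction and concentration are not recorded in the data file. The list need not hold all peptides of the study. Entries at the database's floor value (log10 P of -10) are not listed.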

PAMPA is the parallel artificial membrane permeability assay, which has no cells and reads passive diffusion. Values are log10 P with P in cm/s, so -5 is more permeable than -7.

- CC(C)C[C@@H]1C(=O)N[C@H](CC(C)C)C(=O)N2CCC[C@H]2C(=O)N(C)[C@H](CC(C)C)C(=O)N[C@@H](Cc2ccccc2)C(=O)N2CCC[C@@H]2C(=O)N(C)[C@H](C)C(=O)N1C: PAMPA -4.96 (log10 cm/s)
- CC(C)C[C@H]1C(=O)N(Cc2ccccc2)CC(=O)N2CCC[C@H]2C(=O)N(C)[C@@H](CC(C)C)C(=O)N[C@@H](Cc2ccccc2)C(=O)N2CCC[C@H]2C(=O)N[C@@H](C)C(=O)N1C: PAMPA -5.68 (log10 cm/s)
- CC(C)C[C@H]1NC(=O)[C@H]2CCCN2C(=O)[C@@H](CC(C)C)NC(=O)[C@@H](CC(C)C)NC(=O)[C@@H](C)NC(=O)[C@H](Cc2ccccc2)NC1=O: PAMPA -6.43 (log10 cm/s)
- CCCN1CC(=O)N(C)[C@@H](CC(C)C)C(=O)N(C)[C@H](CC(C)C)C(=O)N2CCC[C@H]2C(=O)N(Cc2ccccc2)CC(=O)N[C@@H](Cc2ccccc2)C(=O)N2CCC[C@@H]2C1=O: PAMPA -5.27 (log10 cm/s)
- CCCN1CC(=O)N(C)[C@H](CC(C)C)C(=O)N[C@H](CC(C)C)C(=O)N2CCC[C@@H]2C(=O)N[C@@H](CC(C)C)C(=O)N[C@@H](Cc2ccccc2)C(=O)N2CCC[C@@H]2C1=O: PAMPA -5.88 (log10 cm/s)
- CC(C)C[C@@H]1NC(=O)[C@H](CC(C)C)N(C)C(=O)C[C@H](Cc2ccccc2)NC(=O)[C@H](Cc2ccccc2)NC(=O)[C@H](CC(C)C)N(C)C(=O)[C@@H]2CCCN2C1=O: PAMPA -5.18 (log10 cm/s)
- CC(C)C[C@@H]1C(=O)N[C@H](CC(C)C)C(=O)N2CCC[C@H]2C(=O)N(C)[C@H](CC(C)C)C(=O)N[C@@H](Cc2ccccc2)C(=O)N2CCC[C@@H]2C(=O)N[C@@H](C)C(=O)N1C: PAMPA -5.74 (log10 cm/s)
- CC(C)C[C@@H]1C(=O)N[C@@H](Cc2ccccc2)C(=O)N2CCC[C@@H]2C(=O)N(C)[C@H](C)C(=O)N(C)[C@@H](CC(C)C)C(=O)N[C@H](CC(C)C)C(=O)N2CCC[C@@H]2C(=O)N1C: PAMPA -5.95 (log10 cm/s)
- CCCN1CC(=O)N[C@H](CC(C)C)C(=O)N[C@H](CC(C)C)C(=O)N2CCC[C@@H]2C(=O)N(Cc2ccccc2)CC(=O)N[C@@H](Cc2ccccc2)C1=O: PAMPA -5.93 (log10 cm/s)
- CC(C)C[C@@H]1NC(=O)C[C@H](Cc2ccccc2)NC(=O)[C@H]2CCCN2C(=O)[C@H](Cc2ccccc2)NC(=O)[C@H](CC(C)C)N(C)C(=O)[C@H]2CCCN2C(=O)[C@H](CC(C)C)N(C)C1=O: PAMPA -5.40 (log10 cm/s)
- CC(C)C[C@H]1NC(=O)[C@@H]2CCCN2C(=O)CN(Cc2ccccc2)C(=O)[C@@H](CC(C)C)NC(=O)[C@@H](C)N(C)C(=O)[C@@H]2CCCN2C(=O)[C@H](Cc2ccccc2)NC1=O: PAMPA -5.98 (log10 cm/s)
- CC(C)C[C@@H]1NC(=O)[C@@H]2CCCN2C(=O)[C@@H](CC(C)C)N(C)C(=O)[C@H](CC(C)C)NC(=O)C[C@H](Cc2ccccc2)NC(=O)[C@H]2CCCN2C(=O)[C@H](Cc2ccccc2)NC1=O: PAMPA -5.36 (log10 cm/s)
- CC(C)C[C@@H]1C(=O)N[C@H](CC(C)C)C(=O)N2CCC[C@@H]2C(=O)N[C@H](CC(C)C)C(=O)N[C@@H](Cc2ccccc2)C(=O)N[C@H](C)C(=O)N1C: PAMPA -6.20 (log10 cm/s)
- CC(C)C[C@@H]1C(=O)N2CCC[C@H]2C(=O)N[C@H](CC(C)C)C(=O)N[C@@H](Cc2ccccc2)C(=O)N2CCC[C@H]2C(=O)N[C@@H](Cc2ccccc2)CC(=O)N[C@H](CC(C)C)C(=O)N1C: PAMPA -5.54 (log10 cm/s)
- CCCN1CC(=O)N(C)[C@@H](CC(C)C)C(=O)N[C@@H](CC(C)C)C(=O)N2CCC[C@@H]2C(=O)N(C)[C@H](CC(C)C)C(=O)N[C@@H](Cc2ccccc2)C1=O: PAMPA -4.98 (log10 cm/s)
- CC(C)C[C@@H]1NC(=O)[C@H]2CCCN2C(=O)[C@H](CC(C)C)NC(=O)[C@@H](CC(C)C)N(C)C(=O)[C@H](C)N(C)C(=O)[C@@H]2CCCN2C(=O)[C@H](Cc2ccccc2)NC1=O: PAMPA -5.83 (log10 cm/s)
- CC(C)C[C@H]1C(=O)N[C@@H](Cc2ccccc2)CC(=O)N2CCC[C@H]2C(=O)N(C)[C@@H](CC(C)C)C(=O)N[C@@H](Cc2ccccc2)C(=O)N[C@@H](C)C(=O)N1C: PAMPA -5.24 (log10 cm/s)

Excerpt, the opening 2 entries:

{"smiles": "CC(C)C[C@@H]1C(=O)N[C@H](CC(C)C)C(=O)N2CCC[C@H]2C(=O)N(C)[C@H](CC(C)C)C(=O)N[C@@H](Cc2ccccc2)C(=O)N2CCC[C@@H]2C(=O)N(C)[C@H](C)C(=O)N1C", "PAMPA (log10 cm/s)": "-4.96"}
{"smiles": "CC(C)C[C@H]1C(=O)N(Cc2ccccc2)CC(=O)N2CCC[C@H]2C(=O)N(C)[C@@H](CC(C)C)C(=O)N[C@@H](Cc2ccccc2)C(=O)N2CCC[C@H]2C(=O)N[C@@H](C)C(=O)N1C", "PAMPA (log10 cm/s)": "-5.68"}

Collected by the curators of CycPeptMPDB (Li et al. 2023) from Townsend et al. 2020, doi:10.26434/chemrxiv.13335941.v1.